{"source": "DBAASP", "key": {"[1]": {"tested_on": "Staphylococcus aureus ATCC 12600", "test": "≥ marks a high value that may be exact or a test limit, other limits are often not marked, values filed in µg/mL are converted to µM"}, "[2]": {"tested_on": "Escherichia coli K-12", "test": "≥ marks a high value that may be exact or a test limit, other limits are often not marked, values filed in µg/mL are converted to µM"}}}
{"smiles": "CC[C@H](C)[C@H](NC(=O)[C@H](CCCCN)NC(=O)[C@H](CCCCN)NC(=O)[C@H](CC(C)C)NC(=O)[C@H](C)NC(=O)CNC(=O)[C@@H](NC(=O)[C@H](C)NC(=O)[C@H](CCCCN)NC(=O)[C@@H]1CCCN1C(=O)[C@H](CC(C)C)NC(=O)[C@H](CC(C)C)NC(=O)[C@H](CCCCN)NC(=O)[C@H](Cc1ccccc1)NC(=O)[C@H](Cc1ccccc1)NC(=O)[C@@H](N)Cc1ccccc1)[C@@H](C)CC)C(=O)O", "note": "[FFFKLLPKAIGALKKI]", "values": [{"measurement": "MIC", "setting": "[1]", "result": "≥ 64", "unit": "µM"}]}
{"smiles": "CC[C@H](C)[C@H](NC(=O)[C@H](CC(C)C)NC(=O)[C@@H]1CCCN1C(=O)[C@H](CCCCN)NC(=O)[C@H](C)NC(=O)[C@@H](NC(=O)[C@@H](NC(=O)[C@@H](NC(=O)[C@@H](NC(=O)[C@H](CCCCN)NC(=O)[C@H](CCCCN)NC(=O)[C@H](CC(C)C)NC(=O)[C@@H](NC(=O)[C@H](CO)NC(=O)[C@@H](NC(=O)[C@H](CC(C)C)NC(=O)[C@H](CCCCN)NC(=O)[C@H](CCCCN)NC(=O)[C@@H](NC(=O)[C@H](Cc1ccccc1)NC(=O)[C@H](CO)NC(=O)[C@H](CCCCN)NC(=O)[C@H](Cc1c[nH]c2ccccc12)NC(=O)[C@@H](N)CCCCN)[C@@H](C)CC)[C@@H](C)O)C(C)C)C(C)C)C(C)C)[C@@H](C)O)[C@@H](C)O)C(=O)N[C@@H](CO)C(=O)N[C@@H](CO)C(=O)O", "note": "[KWKSFIKKLTSVLKKVVTTAKPLISS]", "values": [{"measurement": "MIC", "setting": "[2]", "result": 4, "unit": "µM"}, {"measurement": "MIC", "setting": "[1]", "result": "≥ 32", "unit": "µM"}]}
{"smiles": "CC(C)C[C@H](NC(=O)[C@@H](NC(=O)[C@H](CCCCN)NC(=O)[C@H](CCCCN)NC(=O)[C@@H](NC(=O)[C@H](CCCN=C(N)N)NC(=O)[C@H](CCCCN)NC(=O)[C@@H](NC(=O)[C@@H](N)CC(C)C)C(C)C)C(C)C)C(C)C)C(=O)O", "note": "[LVKRVKKVL]", "values": [{"measurement": "MIC", "setting": "[1]", "result": "≥ 128", "unit": "µM"}]}
{"smiles": "CC(C)C[C@H](NC(=O)[C@H](CC(N)=O)NC(=O)[C@H](CCC(=O)O)NC(=O)[C@H](CC(N)=O)NC(=O)[C@H](CC(C)C)NC(=O)[C@@H](N)C(C)C)C(=O)N[C@@H](CCCN=C(N)N)C(=O)N[C@@H](CCCN=C(N)N)C(=O)O", "note": "[VLNENLRR]", "values": [{"measurement": "MIC", "setting": "[2]", "result": "≥ 128", "unit": "µM"}]}
{"smiles": "CSCC[C@H](NC(=O)[C@H](Cc1cnc[nH]1)NC(=O)[C@H](C)NC(=O)[C@H](CCSC)NC(=O)[C@@H](NC(=O)[C@H](CCCCN)NC(=O)[C@@H]1CCCN1C(=O)[C@H](CC(C)C)NC(=O)[C@@H](N)C(C)C)C(C)C)C(=O)N[C@@H](CCCCN)C(=O)O", "note": "[VLPKVMAHMK]", "values": [{"measurement": "MIC", "setting": "[2]", "result": "≥ 64", "unit": "µM"}, {"measurement": "MIC", "setting": "[1]", "result": "≥ 128", "unit": "µM"}]}
